This note sets out measurements from patent publication US20080057071A1, “Use Of Hedgehog Pathway Inhibitors In Small-Cell Lung Cancer” (priority 2003, published 2008).

Structures are written as SMILES.

Experiment [1] concerns HCT-116 colon cancer xenografts. The conditions noted are these: nude mice, subcutaneous 25 mg^−1 kg^−day^−1, data not shown.
The subject of experiment [2] is NCI-H249 xenografts. Particulars: NCI-H249 SCLC; nude mice; subcutaneous 25 mg^−1 kg^−day^−1; 10 days; FIG. 4c.
Experiment [3] has as its system nine cancer cell lines. Particulars: concentrations up to 10 μM, FIG. 5b. The protocol:
MTT assays were performed as described (Sriuranpong (2002), supra).

In experiment [4] the test system is NCI-H249 SCLC cells. Nature of the experiment: Cell growth of NCI-H249 SCLC cells (MTT assay). Type of experiment: cell-based, human. The conditions noted are these: 5 days, FIG. 3b. The protocol:
(§1) Cyclopamine was obtained from Toronto Research Chemicals. […] MTT assays were performed as described (Sriuranpong (2002), supra).

The test system of experiment [5] is A549 NSCLC cells. Particulars: nude mice, subcutaneous 25 mg^−1 kg^−day^−1, FIG. 4d.
Experiment [6] deals with NCI-H157 NSCLC cells. Nature of the experiment: Cell growth of NCI-H157 NSCLC cells (MTT assay). In kind it is cell-based, human. Particulars: 5 days, FIG. 3c. The protocol:
as §1

Experiment [7] deals with NCI-H417 xenografts. Particulars: NCI-H417 SCLC; nude mice; subcutaneous 25 mg^−1 kg^−day^−1; data not shown.
The subject of experiment [8] is NCI-H1618 xenografts. Particulars: NCI-H1618 SCLC; nude mice; subcutaneous 25 mg^−1 kg^−day^−1; data not shown.

Take `CC1=C2C[C@H]3[C@@H](CC=C4C[C@@H](O)CC[C@@]43C)[C@@H]2CC[C@]12O[C@@H]1C[C@H](C)CN[C@H]1[C@H]2C` [cyclopamine]: the xenograft tumor growth entry in experiment [1] is given as “No effect”; in experiment [2] it was “Growth inhibition”; in experiment [5], “No effect”; in experiment [7] it was “Growth inhibition”; in experiment [8], “Growth inhibition”. In addition, the “growth response of cancer cell lines” value in experiment [3] is “growth inhibition only in SCLC cells that expressed both Shh and its transcriptional effector GLI-1”. Moreover, the “cell growth after compound treatment” value in experiment [4] is listed as “significant growth inhibition”; in experiment [6], “None of KAAD-cyclopamine, cyclopamine or tomatidine was able to affect growth”.
